Values of other authors, collected in US11471428B2, “Method and pharmaceutical composition for treating depression” (ZHEJIANG UNIVERSITY, priority 2017, dated 2022).

Settings: not told; cited from earlier work

Ibogaine
blood-brain barrier permeability: capable of crossing a blood-brain barrier or show at least certain level of blood-brain barrier permeability
